Reference: patent US5317086A, “Cysteine proteinase inhibitors and inhibitor precursors” (The Regents of the University of California, priority 1992, dated 1994)

Chains of the proteins cited; added tags and fusions are not shown. Residues count along the entry.
UniProt P00784, 134-345 limits assumed: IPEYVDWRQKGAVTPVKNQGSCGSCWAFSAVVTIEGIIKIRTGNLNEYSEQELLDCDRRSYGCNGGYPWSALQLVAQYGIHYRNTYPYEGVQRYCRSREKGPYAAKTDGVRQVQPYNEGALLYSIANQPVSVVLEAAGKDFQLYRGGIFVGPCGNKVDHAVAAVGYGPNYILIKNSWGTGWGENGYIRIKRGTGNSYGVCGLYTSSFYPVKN

Columns and labels:
[1] = Acetoxysulfide inhibitor hydrolysis to aldehyde in buffer
Protocol: The hydrolysis of the acetoxysulfide inhibitor to its aldehyde form was monitored by incubation of the inhibitor (2 μM) in the buffer/20% CH3 CN solution. Aliquots were removed and the extent of inhibition was determined by addition of substrate (100 μM) and followed by addition of enzyme. […] At micromolar concentrations of the aldehyde (Ki>3 nM), one would expect to observe this eventual complete inhibition of papain.
A mixture of the inhibitor (2.0 μM) in buffer with 20% CH3 CN was maintained in the 25° C. bath, and 970 μL aliquots were removed at periodic intervals. Substrate (100 μM) and enzyme (prepared as described above under Assays) were added, and substrate hydrolYsis was monitored. The remaining enzyme activity was determined by collecting fluorescence vs time data for ≤15% of the reaction, and a straight line was fitted to the linear portion of the data to give the rate of substrate hydrolysis. Rate vs. time data were plotted to determine the half life of the acetoxysulfide in solution.

[2] = Storage stability of solid; assay type: physicochemical; settings: crystalline solids, freezer
papain [3] = target: T1, papain (Carica papaya, UniProt P00784); test: Competitive, reversible inhibition of papain (fluorescence, CbzPheArgMCA substrate)
Protocol: Fluorescence assays of papain were conducted on a Photon Technology International Alphascan fluorimeter. A Brinkmann RM20 Lauda water bath was used to maintain solutions and the cell compartment of the fluorimeter at constant temperature. All buffer solutions were prepared with doubly distilled H2 O and filtered through Millipore 0.45-mm filters.
Papain (Sigma, 2x recrystallized) (1 mg/mL) was activated at 25° C. for 30 min prior to use in a solution of 0.1mM EDTA, 0.5 mM L-cysteine hydrochloride, and 0.06 mM mercaptoethanol, and was then diluted (20 μL to 1.0 mL) and stored at 4° C. for use in the assays. The cysteine and mercaptoethanol buffers were prepared fresh daily. The standard assay conditions consisted of 50 mM phosphate, 0.2 M NaCl, 5 mM EDTA, 2 mM dithiothreitol (DTT), 0.2% bovine serum albumin (BSA) and 20% CH3 CN, pH 6.5. However, these concentrations were obtained by dilution of a buffer of 100 mM phosphate, 0.4 M NaCl, 10 mM EDTA, 4 mM DTT at pH 6.5 to a final volume of 1 mL with the necessary amounts of CH3 CN and H2 O. The DTT and BSA were added fresh daily to the phosphate buffer. Kinetic measurements were performed by monitoring the fluorescence of 7-amino-4-methylcoumarin (MCA) [1 (excitation) 350 nm, 1 (emission) 460 nm] released upon hydrolysis of the substrate, CbzPheArgMCA. Assays were conducted by charging a quartz cuvette with the appropriate amount of substrate solution, variable inhibitor in CH3 CN, and the reaction was initiated by addition of papain to the sample cuvette. […] The Km was determined in duplicate runs by fitting rate vs. [S] using the program ENZFITTER.
For the acetoxysulfide inhibitor, the concentration was varied from 50 μM to 0.10 μM at [S]=0.1 mM (1.3 Km). For the aldehyde, the parent dimethyl acetal was hydrolyzed in 0.3% HCl for 18 hr prior to assay, and concentration of aldehyde was varied from 262 nM to 0.262 nM. Fluorescence vs time data were collected for ≤15% of the reaction, and a straight line was fitted to the linear portion of the data. […]

papain [4] = target: T1, papain; test: Irreversible inhibition of papain (preincubation and 3000-fold dilution assay)
Protocol: Papain (Sigma, 2x recrystallized) (1 mg/mL) was activated at 25° C. for 30 min prior to use in a solution of 0.1mM EDTA, 0.5 mM L-cysteine hydrochloride, and 0.06 mM mercaptoethanol, and was then diluted (20 μL to 1.0 mL) and stored at 4° C. for use in the assays. The cysteine and mercaptoethanol buffers were prepared fresh daily. The standard assay conditions consisted of 50 mM phosphate, 0.2 M NaCl, 5 mM EDTA, 2 mM dithiothreitol (DTT), 0.2% bovine serum albumin (BSA) and 20% CH3 CN, pH 6.5. […] Kinetic measurements were performed by monitoring the fluorescence of 7-amino-4-methylcoumarin (MCA) [1 (excitation) 350 nm, 1 (emission) 460 nm] released upon hydrolysis of the substrate, CbzPheArgMCA. […] The Km was determined in duplicate runs by fitting rate vs. [S] using the program ENZFITTER. […]
As illustrated by FIG. 1, evidence of irreversible inhibition was seen when the inhibitor was incubated with papain and diluted 3000-fold (to 7 nM) into a buffered solution of substrate, with slow but incomplete pseudo-first order deactivation of papain (25% loss of papain activity over 3.5 hr, diamond symbol in the graph). […] The dilution assay also provided evidence that the inhibition measured in the reversible assay was not due to trace amounts of aldehyde contamination. […]

SMILES | t1/2 for the conversion of acetoxysulfide to aldehyde ([1]; 2 μM in buffer/20% CH3CN, 25° C., average of duplicate runs) | hydrolysis half-life ([1]; pH 7, forms the aldehyde derivative) | storage stability (in words) [2] | pKi (papain [3]; read-out: Ki as competitive, reversible inhibitor of papain, mixture of diastereomers, [S]=0.1 mM (1.3 Km), pH 6.5, 20% CH3CN) | irreversible inhibition of papain (in words) (papain [4]; incubated with papain, diluted 3000-fold (to 7 nM) into buffered substrate, FIG. 1) | loss of papain activity (papain [4]; inhibitor 0.020 μM (7Ki) incubated with papain, diluted 3000-fold (to), over 3.5 hr, 25° C.) [%] | inhibition of the cysteine protease papain (in words) (papain [3]) | pKi (papain [3]; read-out: Ki of the aldehyde against papain, aldehyde form of the acetoxysulfide)
COC(=O)CCC(=O)N[C@@H](Cc1ccccc1)C(=O)N[C@@H](C)C(OC(C)=O)SCCC(C)C (some centres unmarked) | approx. 60 min | about one | stable during prolonged storage in a freezer | 5.52 | slow but incomplete pseudo-first order deactivation of papain | 25 |  | 
COC(=O)CCC(=O)N[C@@H](Cc1ccccc1)C(=O)N[C@@H](C)C=O |  |  |  |  |  |  | potent inhibitor | < 8.52

pKi: −log10 of the molar value. Like-named read-outs stand apart in the source and are kept apart here.
